IC50 data for 1 molecule are collected here from ChEMBL document CHEMBL6087477, “G9a/GLP Modulators: Inhibitors to Degraders” (J Med Chem, 2025).

This experiment concerns the target T1, Histone-lysine N-methyltransferase EHMT1 (Homo sapiens, UniProt Q9H9B1).
T1 sequence (Q9H9B1 whole entry): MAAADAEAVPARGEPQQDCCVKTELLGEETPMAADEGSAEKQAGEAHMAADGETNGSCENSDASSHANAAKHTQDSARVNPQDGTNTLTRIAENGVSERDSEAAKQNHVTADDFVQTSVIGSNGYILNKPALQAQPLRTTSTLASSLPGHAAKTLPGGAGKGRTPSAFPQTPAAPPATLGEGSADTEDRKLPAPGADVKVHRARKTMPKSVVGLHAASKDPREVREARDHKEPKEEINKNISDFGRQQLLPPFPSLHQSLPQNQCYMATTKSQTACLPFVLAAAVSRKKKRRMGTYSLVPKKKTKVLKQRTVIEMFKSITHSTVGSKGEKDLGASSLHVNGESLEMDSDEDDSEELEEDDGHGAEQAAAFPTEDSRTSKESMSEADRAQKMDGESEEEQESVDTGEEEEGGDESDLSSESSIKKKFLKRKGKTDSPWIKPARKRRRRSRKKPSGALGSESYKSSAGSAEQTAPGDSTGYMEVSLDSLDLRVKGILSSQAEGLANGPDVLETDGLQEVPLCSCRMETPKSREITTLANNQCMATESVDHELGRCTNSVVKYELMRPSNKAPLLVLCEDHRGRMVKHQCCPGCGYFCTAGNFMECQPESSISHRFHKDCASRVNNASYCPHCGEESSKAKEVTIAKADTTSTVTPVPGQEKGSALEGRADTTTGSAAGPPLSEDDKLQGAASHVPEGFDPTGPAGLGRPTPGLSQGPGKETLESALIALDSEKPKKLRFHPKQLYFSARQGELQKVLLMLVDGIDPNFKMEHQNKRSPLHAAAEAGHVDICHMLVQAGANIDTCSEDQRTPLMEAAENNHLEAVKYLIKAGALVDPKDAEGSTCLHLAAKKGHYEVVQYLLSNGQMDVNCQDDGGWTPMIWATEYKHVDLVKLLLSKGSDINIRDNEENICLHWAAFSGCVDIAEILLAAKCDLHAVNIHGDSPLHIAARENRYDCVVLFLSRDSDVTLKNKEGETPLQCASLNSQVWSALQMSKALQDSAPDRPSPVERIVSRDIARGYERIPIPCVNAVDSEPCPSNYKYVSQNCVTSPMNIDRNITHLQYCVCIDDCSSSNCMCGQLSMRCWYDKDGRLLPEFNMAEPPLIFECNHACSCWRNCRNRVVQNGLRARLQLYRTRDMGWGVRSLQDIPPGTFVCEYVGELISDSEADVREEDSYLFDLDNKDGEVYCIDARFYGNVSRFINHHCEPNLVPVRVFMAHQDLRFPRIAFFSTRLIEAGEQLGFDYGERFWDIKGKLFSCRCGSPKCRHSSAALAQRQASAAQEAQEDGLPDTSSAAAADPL
Briefly: Inhibition of GLP (unknown origin).

The structures appear in SMILES notation.

For orientation: IC50 means the midpoint of a concentration-inhibition curve. Low readings indicate greater potency in that assay, high ones weaker potency in that assay. The molecule `COc1cc2nc(N3CCCN(C)CC3)nc(NC3CCN(Cc4ccccc4)CC3)c2cc1OC` returned an IC50 of 20 nM.
